## Binding of CDR-mutated scFvs to a peptide of the spike HR2 region

Values reported by Engelhart et al. 2022, doi:10.1038/s41597-022-01779-4 (FLAb copy).

Target: peptide PDVDLGDISGINAS, taken from heptad repeat 2 (HR2) of SARS-CoV-2 spike.

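AAYL49 was designed without a model: most single CDR substitutions and a random sample of double and triple ones. The assay is AlphaSeq: two haploid yeast populations carry antibody and antigen on their surface. After mating in shaken culture at 30 °C for 16 h, diploids were selected and their barcode pairs sequenced. Read counts were normalised to the haploid input and turned into Kd by a linear fit to BCL2-family pairs of known affinity, for each replicate. Mating was done three times.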

The variants keep the light chain, the linker and the frameworks of Ab-14 (scFv order VH, the linker GGGGSGGGGSGGGGS, VL).
VH: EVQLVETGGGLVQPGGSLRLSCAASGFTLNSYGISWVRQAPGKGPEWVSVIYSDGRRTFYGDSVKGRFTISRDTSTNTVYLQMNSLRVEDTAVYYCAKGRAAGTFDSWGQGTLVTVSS
VL: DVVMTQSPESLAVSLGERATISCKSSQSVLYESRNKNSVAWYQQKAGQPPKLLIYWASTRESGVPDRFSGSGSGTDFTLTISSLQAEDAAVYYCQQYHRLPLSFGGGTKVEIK

Changes read parent residue, position, new residue, counted from the first residue of the VH shown. Only single mutants are listed, position by position. Values are log10 of the apparent Kd in nM; lower means stronger binding. A mean of the replicates is given; it leaves out those without a signal. Where no diploid with the target was found in any replicate, the entry reads "not detected": below detection, most likely a poor binder, though not proof of it. In this assay the parent's reference entry averaged 0.65; its copy inside this library read 4.11 (one replicate of three). Nonspecific signal, from three strains lacking the peptide, appeared in 15% of pairings of library AAYL49, centred on 4.06 (5% of these signals below 2.83); values are not corrected for it.

changes,mean log10 Kd (nM),replicates with signal
D54P,5.07,3/3
D54T,3.45,2/3
D54Y,not detected,0/3
D54M,not detected,0/3
D54E,not detected,0/3
D54L,not detected,0/3
D54I,not detected,0/3
D54Q,not detected,0/3
D54C,5.52,2/3
D54A,not detected,0/3
D54V,4.24,2/3
D54K,4.25,3/3
G55P,4.91,2/3
G55N,3.75,1/3
G55L,4.88,3/3
G55R,not detected,0/3
G55F,4.72,1/3
G55H,4.12,1/3
G55Q,not detected,0/3
G55W,not detected,0/3
G55S,not detected,0/3
G55A,4.02,3/3
G55M,not detected,0/3
G55Y,not detected,0/3
G55D,not detected,0/3
G55C,not detected,0/3
G55E,not detected,0/3
G55T,5.39,2/3
G55V,not detected,0/3
R56V,1.19,3/3
R56T,1.13,3/3
R56I,1.33,3/3
R56L,3.59,3/3
R56Q,0.63,3/3
R56E,2.18,3/3
R56N,1.06,3/3
R56G,4.01,3/3
R56C,1.63,3/3
R56M,0.89,3/3
R56W,not detected,0/3
R56Y,1.10,3/3
R56P,not detected,0/3
R56F,1.10,3/3
R56K,0.68,3/3
R56H,4.87,1/3
R56A,3.71,1/3
R57W,not detected,0/3
R57A,not detected,0/3

Excerpt, the final 4 entries:

| changes | mean log10 Kd (nM) | replicates with signal |
|---|---|---|
| R56H | 4.87 | 1/3 |
| R56A | 3.71 | 1/3 |
| R57W | not detected | 0/3 |
| R57A | not detected | 0/3 |